Measured values published in ChEMBL document CHEMBL4428116, “Synthesis, molecular modeling and SAR study of novel pyrazolo[5,1-f][1,6]naphthyridines as CB2 receptor antagonists/inverse agonists” (Bioorg Med Chem, 2016).

Chains of the proteins cited; added tags and fusions are not shown.
UniProt P20272, whole entry: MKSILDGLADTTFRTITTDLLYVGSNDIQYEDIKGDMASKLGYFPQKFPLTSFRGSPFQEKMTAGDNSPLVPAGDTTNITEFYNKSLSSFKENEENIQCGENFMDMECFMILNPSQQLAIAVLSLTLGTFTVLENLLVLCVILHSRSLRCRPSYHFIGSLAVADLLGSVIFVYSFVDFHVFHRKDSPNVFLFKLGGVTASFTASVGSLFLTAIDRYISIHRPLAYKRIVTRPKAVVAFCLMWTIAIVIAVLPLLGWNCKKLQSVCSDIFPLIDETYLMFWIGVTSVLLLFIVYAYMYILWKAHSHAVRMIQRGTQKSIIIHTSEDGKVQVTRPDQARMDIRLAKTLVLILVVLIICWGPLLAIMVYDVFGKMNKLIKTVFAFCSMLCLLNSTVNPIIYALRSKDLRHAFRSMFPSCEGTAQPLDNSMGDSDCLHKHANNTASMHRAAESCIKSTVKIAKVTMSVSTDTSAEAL

Target: Cannabinoid receptor 1 (Rattus norvegicus, UniProt P20272)
Test: Displacement of [3H]CP-55,940 from rat brain CB1 receptor after 1 hr by scintillation counting method

SMILES: Cc1ccc(Cn2nc(C(=O)N[C@@H]3C(C)(C)[C@@H]4CC[C@@]3(C)C4)cc2-c2ccc(Cl)c(C)c2)cc1 [SR-144528]
- Ki: 400 nM
